A short description of data set [1]: dissolution in water and freedom from haze and sediment at 350 mg calcium per eight fluid ounce serving. In kind it is physicochemical. The text has this: The solution remained completely free of haze and sediment for at least two days of storage at room temperature. Similar or even better results were obtained from the salts prepared having calcium:citrate mole ratios lower than 2:2, even when dissolved in water at higher concentrations.
These powders, in spite of the sediment produced, would provide very acceptable performance in many, if not most, food applications, including instant beverage mixes and acidified RTD beverages.
This behavior might also be acceptable in some situations (i.e., opaque instant beverage mixes), but appears to represent a practical upper limit for applications that require high levels of soluble calcium and/or require a sediment-free transparent appearance.
As an alternative to freeze drying, an amorphous 2:2 mole ratio calcium citrate salt, using the same ingredients as in Example 1, was also successfully produced via spray drying (i.e., pilot scale drying using standard operating conditions and procedures). In this case, chilled calcium hydroxide and citric acid solutions were combined and rapidly spray dried before solidification or sediment formation could occur. […] In a large scale commercial process, the citric acid and calcium hydroxide (or other suitable reagents) would be beneficially combined just prior to spray drying to limit the potential for solidification or sediment formation.
One batch of the chilled citric acid solution was poured into a mix tank jacketed with cooling water and one batch of calcium hydroxide suspension was added with stirring. […] The clear solution was immediately pumped into a semi-works scale spray dryer, fitted with an atomizing nozzle, at a flow rate of about 0.5 kg per minute. Additional batches of citric acid solution and calcium hydroxide suspension were similarly added to the mix tank as needed to prevent complete emptying. A sample of fine white powder was collected from the spray dryer after ten minutes of operation. […] After a further fifteen minutes, the cooling water was shut off from the jacketed mix tank. […]

Data set [2] can be described thus: shelf life testing of calcium-fortified RTD beverage. The format is physicochemical. As to conditions: CRYSTAL LIGHT RTD lemon beverage; amounts to provide the same level of calcium. As for the experimental part:
Fortified RTD beverages were formulated with several forms of calcium citrate. The visual appearance, flavor, and stability of the products were evaluated over a seven-month period by an experienced panel. Identical samples of each fortified beverage were prepared for shelf life testing under both ambient (22° C.) and refrigerated (4° C.) storage conditions.
The freeze dried amorphous 2:2 mole ratio calcium citrate salt (17% calcium) of Example 1 was successfully used to fortify a ready-to-drink sugar-free lemon-flavored beverage (CRYSTAL LIGHT®) with 350 mg calcium per eight fluid ounce serving (“excellent source of calcium” level). To formulate the calcium-fortified powdered mix, eight fluid ounces of commercial CRYSTAL LIGHT® RTD beverage mix was mixed thoroughly with 2 g of the freeze dried amorphous 2:2 mole ratio calcium citrate salt.

“calcium citrate monohydrate [reference compound]”: the “haze and sediment produced at first, on or soon after addition to water” value in data set [1] (350 mg calcium per eight fluid ounce serving) is given as “immediately produced a large amount of coarse, gritty white sediment”. Moreover, in data set [1] (350 mg calcium per eight ounce serving, room temperature), the “time for sediment to completely dissolve” value is reported as “several days”. In data set [1] (freeze dried powders of Example 1 or commercial salts, room temperature water, 350 mg calcium per eight fluid ounce serving), the “dissolution behaviour on addition to water” value was “did not completely disperse in water”. Also, the “sediment in fortified RTD beverage upon admixture of the ingredients” value in data set [2] is given as “noticeable sediment formation”.

The record behind these values is patent US7713559B2, “Amorphous water-soluble calcium citrate salts and method of making and using same” (Kraft Foods Global Brands LLC, priority 2004, dated 2010).
